Assay [1] addresses T1, fibrin polymerization (Homo sapiens, UniProt P02671+P02675+P02679).
T1 sequence (P02671 20-644 isoform P02671-2 limits assumed): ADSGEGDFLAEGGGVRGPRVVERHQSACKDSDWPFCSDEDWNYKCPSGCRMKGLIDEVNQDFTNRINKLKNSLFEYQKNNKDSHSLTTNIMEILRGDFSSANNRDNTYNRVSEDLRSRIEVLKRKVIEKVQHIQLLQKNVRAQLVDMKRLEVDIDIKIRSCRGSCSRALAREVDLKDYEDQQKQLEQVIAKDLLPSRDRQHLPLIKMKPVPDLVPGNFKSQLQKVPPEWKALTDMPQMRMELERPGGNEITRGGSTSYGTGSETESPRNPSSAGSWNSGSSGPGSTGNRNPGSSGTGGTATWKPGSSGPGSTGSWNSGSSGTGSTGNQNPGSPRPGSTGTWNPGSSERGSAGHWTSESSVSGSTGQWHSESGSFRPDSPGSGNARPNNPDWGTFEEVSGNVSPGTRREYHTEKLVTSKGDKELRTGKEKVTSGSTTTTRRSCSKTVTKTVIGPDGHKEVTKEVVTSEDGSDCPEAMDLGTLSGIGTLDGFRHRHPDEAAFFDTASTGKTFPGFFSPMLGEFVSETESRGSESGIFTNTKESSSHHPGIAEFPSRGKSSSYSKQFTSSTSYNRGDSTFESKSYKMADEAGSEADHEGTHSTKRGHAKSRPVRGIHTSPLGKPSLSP
T1 sequence (P02675 45-491 limits assumed): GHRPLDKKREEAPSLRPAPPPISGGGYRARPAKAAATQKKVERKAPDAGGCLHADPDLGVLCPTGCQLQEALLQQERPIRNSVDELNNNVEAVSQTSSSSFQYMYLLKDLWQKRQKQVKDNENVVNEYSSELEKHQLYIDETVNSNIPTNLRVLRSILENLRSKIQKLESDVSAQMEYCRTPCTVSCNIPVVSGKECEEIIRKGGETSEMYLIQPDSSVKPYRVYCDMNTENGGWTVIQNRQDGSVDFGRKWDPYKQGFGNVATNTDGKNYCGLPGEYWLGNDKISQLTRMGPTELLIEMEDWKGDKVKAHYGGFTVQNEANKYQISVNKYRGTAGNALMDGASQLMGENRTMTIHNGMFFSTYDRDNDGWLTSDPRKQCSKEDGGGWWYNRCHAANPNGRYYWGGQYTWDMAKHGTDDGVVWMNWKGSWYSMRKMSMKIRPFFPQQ
T1 sequence (P02679 27-437 isoform P02679-2 limits assumed): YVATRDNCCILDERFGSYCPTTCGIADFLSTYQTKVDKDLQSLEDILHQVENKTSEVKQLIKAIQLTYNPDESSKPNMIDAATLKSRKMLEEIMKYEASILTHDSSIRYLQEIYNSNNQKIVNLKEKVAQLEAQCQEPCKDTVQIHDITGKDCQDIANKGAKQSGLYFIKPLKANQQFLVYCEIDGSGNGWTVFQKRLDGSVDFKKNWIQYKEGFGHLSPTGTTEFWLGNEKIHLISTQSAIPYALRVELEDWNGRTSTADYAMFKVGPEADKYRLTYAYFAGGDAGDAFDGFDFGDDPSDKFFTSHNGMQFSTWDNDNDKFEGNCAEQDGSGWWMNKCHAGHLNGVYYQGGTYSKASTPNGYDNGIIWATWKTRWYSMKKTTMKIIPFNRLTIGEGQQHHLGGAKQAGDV
Briefly: Turbidity analysis of fibrin polymerization (system not specified). The class given is biochemical. To be noted: applicant's own experiments. An excerpt:
Furthermore, because of electro neutrality of the declared calixarene-145 molecule, it may be more suitable for injection to a living organism as an inhibitor of fibrin polymerization and the process of blood clotting, as well.

Assay [2] has as its target T1, fibrin polymerization. To be noted: literature values (refs [6], [2]); turbidity analysis; cited from earlier work.

This passage reports IC50 results from patent publication US20130090494A1, “TETRAKIS[BIS(DIHYDROXYPHOSPHORYL)METHYL]CALIX[4]ARENE OR ITS SODIUM SALT THEREOF AS FIBRIN POLYMERIZATION INHIBITORS” (priority 2010, published 2013).

The structures appear in SMILES notation. Where two headings read alike, the source gives them in different places.

One may read the IC50 as the concentration needed to halve the response being measured. Regarding `N=C(N)NCCC[C@H](NC(=O)[C@@H]1CCCN1C(=O)CN)C(=O)N1CCC[C@H]1C(=O)O` [Gly-Pro-Arg-Pro, reference compound], the concentration for half-maximal inhibition (IC50) at fibrin polymerization [1] was 50 µM; at fibrin polymerization [2] it was 85 µM.
